This passage reports Potency results from PubChem BioAssay AID1970 (National Center for Advancing Translational Sciences (NCATS), 2009).

Protein sequences, listed by entry. Tags and fused reporters are not part of them. Lines headed by an entry give the natural chain unless they say otherwise; changes in a name come on top.
UniProt Q9HAZ1: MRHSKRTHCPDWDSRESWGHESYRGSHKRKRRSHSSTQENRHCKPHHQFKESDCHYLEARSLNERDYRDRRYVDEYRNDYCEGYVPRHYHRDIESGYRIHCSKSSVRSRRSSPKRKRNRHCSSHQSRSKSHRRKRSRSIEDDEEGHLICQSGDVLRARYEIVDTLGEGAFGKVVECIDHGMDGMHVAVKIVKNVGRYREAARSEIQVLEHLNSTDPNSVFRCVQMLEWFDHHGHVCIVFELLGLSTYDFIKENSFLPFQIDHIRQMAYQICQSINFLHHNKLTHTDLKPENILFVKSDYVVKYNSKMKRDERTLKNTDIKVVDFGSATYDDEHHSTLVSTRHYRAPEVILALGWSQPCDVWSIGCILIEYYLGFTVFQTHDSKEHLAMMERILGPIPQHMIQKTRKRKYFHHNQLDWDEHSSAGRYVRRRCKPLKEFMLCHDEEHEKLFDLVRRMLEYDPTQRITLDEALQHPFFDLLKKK

For the assay, the target named is Dual specificity protein kinase CLK4 (Homo sapiens) (UniProt Q9HAZ1). The experiment in a line: Confirmation Assay for Inhibitors of CDC-like Kinase 4 (Kinase-Glo Assay). The note with it: recombinant Clk4, Kinase-Glo ATP depletion luminescence. Here is the method: NIH Molecular Libraries Probe Production Centers Network [MLPCN] NIH Chemical Genomics Center [NCGC] MLPCN Grant: 1R03MH084827-01 Assay Submitter (PI): Tom Misteli NCGC Assay Overview: Clk4 (Invitrogen, cat# PV3839) was assayed using ATP and the RS repeat peptide (AnaSpec cat # 61722) as substrates. Following the Clk4 reaction, the remaining ATP levels were detected using Promega Kinase-Glo technology wherein the remaining ATP from the kinase reaction is detected using Ultra-Glo luciferase and D-luciferin which generates a bioluminescence signal from the ATP. The positive control for the assay was TG003 (Sigma-Aldrich, cat# 300801-52-9) which has been described as an inhibitor of Clk 4[1].
NCGC Assay Protocol Summary: Two uL/well of substrate-buffer solution (100 uM RS peptide, 1 uM ATP, 25 mM Tris pH7.5, 10 mM MgCl2, 0.5 mM EGTA, 2.5 mM DTT, 0.01% Triton X-100 final concentration) was dispensed into 1536-well, assay plates (Greiner, solid white medium-binding plates) with Aurora Discovery BioRAPTR Flying Reagent Dispenser (FRD; Beckton-Dickenson). Using a Kalypsys pin tool equipped with a 1536-pin tool, 23 nL of compound solution was transferred to the assay plate. […] Luminescence was detected with the ViewLux plate reader (Perkin Elmer, Waltham, MA) after 5 min incubation using a 5 second exposure time and 2x binning.
In general terms: Kinase-Glo reads ATP consumption through a luciferase reaction.

The entries are a selection whose mix differs from that of the whole data set. Inconclusive results are not listed. Activity calls are given as the source filed them. The call rests on the fitted dose curve; in most records, active means well fitted inhibition curve with a large enough effect; inconclusive means small, poorly fitted or top-dose-only effect; inactive means flat fitted curve, though single readings scatter.

Consider `c1nc(NCC2CCCC2)c2cc(-c3ccc4c(c3)OCO4)ccc2n1`, for which the Potency is active: 51.9 nM.
Consider `CN(Cc1ncc[nH]1)c1ncnc2ccc(-c3ccc4c(c3)OCO4)cc12`, for which the Potency is active: 65.4 nM.
